Test results taken from patent publication US20240000957A1 (published 2024).

Amino acid sequences for entries named in this document (tags omitted). Residues count along the entry.
UniProt P29317, 24-537: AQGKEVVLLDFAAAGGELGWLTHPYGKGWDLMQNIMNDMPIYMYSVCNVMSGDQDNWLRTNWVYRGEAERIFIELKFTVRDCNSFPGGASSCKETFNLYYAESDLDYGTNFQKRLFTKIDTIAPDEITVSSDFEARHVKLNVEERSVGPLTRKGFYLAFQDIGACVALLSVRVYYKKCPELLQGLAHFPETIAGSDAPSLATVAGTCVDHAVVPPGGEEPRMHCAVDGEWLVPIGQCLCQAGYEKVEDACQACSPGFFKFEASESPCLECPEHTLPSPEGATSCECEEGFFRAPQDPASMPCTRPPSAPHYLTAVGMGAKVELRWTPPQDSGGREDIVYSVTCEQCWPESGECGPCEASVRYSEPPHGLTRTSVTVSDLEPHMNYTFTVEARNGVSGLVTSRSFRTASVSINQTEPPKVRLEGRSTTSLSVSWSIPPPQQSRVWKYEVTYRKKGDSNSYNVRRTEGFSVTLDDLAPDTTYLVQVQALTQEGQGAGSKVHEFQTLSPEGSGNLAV
UniProt Q03145, 26-538: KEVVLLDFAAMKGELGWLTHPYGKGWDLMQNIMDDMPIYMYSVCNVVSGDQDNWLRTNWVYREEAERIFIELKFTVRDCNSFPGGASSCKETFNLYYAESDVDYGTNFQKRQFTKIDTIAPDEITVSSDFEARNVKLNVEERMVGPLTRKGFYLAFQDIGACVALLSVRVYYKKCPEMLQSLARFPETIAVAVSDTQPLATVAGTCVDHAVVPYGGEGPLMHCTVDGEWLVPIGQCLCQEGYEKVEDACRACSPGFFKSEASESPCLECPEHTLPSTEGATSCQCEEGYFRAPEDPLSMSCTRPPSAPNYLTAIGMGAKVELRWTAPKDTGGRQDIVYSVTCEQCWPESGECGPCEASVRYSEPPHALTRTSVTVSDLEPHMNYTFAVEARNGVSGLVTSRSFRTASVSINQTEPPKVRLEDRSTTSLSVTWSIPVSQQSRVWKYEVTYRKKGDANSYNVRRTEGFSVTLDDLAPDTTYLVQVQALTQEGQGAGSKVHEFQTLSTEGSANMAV

What was measured:
[1] = biological target: T1, Human EphA2 (Ecto), C-terminal polyHis (Human, UniProt P29317 24-537); experiment: FP competition vs Reference Compound C
T1 construct: extracellular domain; R&D systems 3035-A2 or in-house

[2] = biological target: T1, Human EphA2 (Ecto), C-terminal polyHis; experiment: FP competition vs Reference Compound C (Study 2)
Mouse EphA2 (Ecto) [3] = biological target: T2, Mouse EphA2 (Ecto) (Mouse, UniProt Q03145 26-538); experiment: FP competition vs Reference Compound C (Study 2)
T2 construct: extracellular domain; Fluorescence polarisation assays; not shown: Fc fusion (R&D Systems 639-A2) or C-terminal polyHis (Sino Biological 50586-M08H)

Human EphA2 = biological target: T3, Human EphA2 (Human, UniProt P29317 24-537, limits assumed, biotinylated, 0.95 mol biotin/monomer); experiment: SPR, biotinylated EphA2 on streptavidin chip
T3 construct: also called Eph receptor tyrosine kinase A2

Mouse EphA2 (Ecto) [4] = biological target: T2, Mouse EphA2 (Ecto); experiment: FP competition vs Reference Compound C

ACPMVNPLCLHPGWKCA (TATA scaffold on the 3 Cys) [Compound 95] was tested, and the Ki [1] was 11.9 nM.

ACPMVNPLCLTPGWICA (TATA scaffold on the 3 Cys) [Compound 96] showed a Ki [1] of 16.1 nM.

CPLVNPLCLHPGWTCLHG (N-terminal Ac; C-terminal -Sar6-(D-K); TATA scaffold on the 3 Cys, also called Compound 77) [BCY6019] showed a Ki [2] of 6.4 nM and a Ki (Mouse EphA2 (Ecto) [3]) of 16 nM.

ACPLVNPLCLHPGWSCRGQ (TATA scaffold on the 3 Cys, also called Compound 87) gave a Ki [2] of 4.4 nM.

CPLVNPLCLHPGWSCRGQ (N-terminal Ac; C-terminal -Sar6-(D-K); TATA scaffold on the 3 Cys, also called Compound 91) [BCY6042] showed a Ki [2] of 6.7 nM.

B1: BCY6059 (peptide)
peptide: CPLVNPLCLHPGWTCLHG
modifications: BCY6019 (N-terminal Ac; C-terminal -Sar6-(D-K); TATA scaffold on the 3 Cys) acetylated with acetyl acetate
notes: made from BCY6019
B1 was tested, and the Ki [2] was 43.2 nM.

B2: BCY6026 (peptide)
peptide: ACPLVNPLCLHPGWSCRGQ
modifications: three Cys residues cyclised on the TATA scaffold (1,1',1''-(1,3,5-triazinane-1,3,5-triyl)triprop-2-en-1-one)
notes: Bicyclic peptide on a TATA scaffold, no toxin; Made on Rink amide resin; also called Compound 87; Bicycle Compound Number 87
Binder B2 has a Kd (Human EphA2) of 1.02 nM.

GQVCIVDARCAYMNVCA (TATA scaffold on the 3 Cys) [Compound 24] showed a Ki [1] of 168 nM.

ACQPSNHCAFMNYCA (TATA scaffold on the 3 Cys) [Compound 30] was tested, and the Ki [1] was 293 nM.

With ACRVYGPYCAYPDTICA (TATA scaffold on the 3 Cys) [Compound 37] the Ki [1] was 294 nM.

For ACGFMGLEPCELYCA (TATA scaffold on the 3 Cys) [Compound 48], the Ki [1] was 128 nM.

For KHSCPLVNPLCLHPGWTCA (TATA scaffold on the 3 Cys) [Compound 72], the Ki [1] was 11.9 nM.

With ACPLVNPLCLHPGWTCLHG (TATA scaffold on the 3 Cys) [Compound 73] the Ki [1] was 1.98 nM and the Ki (Mouse EphA2 (Ecto) [4]) was 72.7 nM.

ACPLVNPLCLHPGWTCLHG (N-terminal (β-Ala)-Sar10; TATA scaffold on the 3 Cys) [Compound 75] gave a Ki (Mouse EphA2 (Ecto) [4]) of 18 nM.
